The source of these data is US20260356809A1 (The United States of America, as represented by the …, priority 2022, published 2026).

Chains of the proteins cited; added tags and fusions are not shown.
UniProt P08908, whole entry, species assumed: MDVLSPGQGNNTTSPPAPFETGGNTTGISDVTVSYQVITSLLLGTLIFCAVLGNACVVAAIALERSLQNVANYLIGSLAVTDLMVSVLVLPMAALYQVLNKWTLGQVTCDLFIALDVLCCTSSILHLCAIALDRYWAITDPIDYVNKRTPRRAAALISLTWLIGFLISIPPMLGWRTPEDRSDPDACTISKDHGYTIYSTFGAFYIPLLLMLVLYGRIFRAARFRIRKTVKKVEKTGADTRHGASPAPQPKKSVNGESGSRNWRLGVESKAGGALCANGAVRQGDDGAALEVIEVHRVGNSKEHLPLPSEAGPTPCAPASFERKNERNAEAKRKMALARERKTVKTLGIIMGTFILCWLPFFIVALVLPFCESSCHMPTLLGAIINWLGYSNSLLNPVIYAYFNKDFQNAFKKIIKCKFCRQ

Structures are written as SMILES.

The assay has as its target 5-HT1A (Homo sapiens, UniProt P08908). Kind of assay: 5-HT1A [35S]GTPγS, agonist. The class given is biochemical. The following applies: agonist mode. (In general: GTPγS resists hydrolysis and so accumulates on activated G proteins.)

`COCCC(=O)N[C@H]1CC[C@H](CCN2CCN(c3cccc(OC)c3F)CC2)CC1` [Compound 13c, N-(trans-4-(2-(4-(2-Fluoro-3-methoxyphenyl)piperazin-1-yl)ethyl)cyclohexyl)-3-methoxypropanamide]: the “5-HT1A [35S]GTPγS Emax ± SEM” value is listed as 86.6 ± 3.5%.
